Source: US4228162A, “Dimethyl isosorbide in liquid formulation of aspirin” (priority 1979, dated 1980)

Tested on: rats
Experiment: Acute Oral Toxicity--Rat
Conditions: in vivo

CO[C@H]1CO[C@H]2[C@@H]1OC[C@H]2OC [Dimethyl isosorbide, dimethyl isosorbide]
acute oral (LD50) toxicity: about 5.63 ml per kg of body weight | survival: All of the 20 rats given the four low dosages survived
